# According to patent US20200375945A1, “INHALABLE FORMULATION OF A SOLUTION CONTAINING INDACATEROL MALEATE AND GLYCOPYRRONIUM BROMIDE” (priority 2019, published 2020):
# What was measured:
# [1] = Tested concentration and assay of the active ingredients in the inhalation solution; format: physicochemical; conditions: in the sample solutions (ethanol/water, benzalkonium chloride, edetate disodium dihydrate)
# [2] = Aerodynamic particle size distribution on Next Generation Impactor (NGI); format: physicochemical; conditions: sample 2 sprayed with soft mist inhaler, NGI at 30 L/min
# Protocol: Sample 2 was sprayed with a soft mist inhaler. Aerodynamic particle size distribution of droplets of sample 2 was measured on Next Generation Impactor (NGI). Next Generation Impactor operated at a flow rate of 30 L/min was used for determination of particle size distribution. For each of the impactor experiments, the impactor collection stages were coated with a silicone oil. The aerodynamic particle size distribution is expressed in terms of mass median aerodynamic diameter (MMAD) and Geometric Standard Deviation (GSD).
substance,measurement,setting,value
Glycopyrronium bromide,Dissolution of the active in the solution,[1],completely dissolved
same,MMAD (mass median aerodynamic diameter),[2],3.35 μm
